Experimental data: PubChem BioAssay (NCATS)
Several values for one entry are separate records, joined by “and”; a condition that tells them apart may be missing. Equal entries are not always repeated. The entries are a selection whose mix differs from that of the whole data set. Results filed as inconclusive are left out. For some of these results: Results with a measured potency or affinity are listed apart. Activity calls are given as the source filed them. Unless noted, calls follow the shape of the dose curve; as a rule, active = well fitted curve in the direction sought with a large enough effect; inconclusive = small, poorly fitted or top-dose-only effect, or another doubt; inactive = no such curve, though single readings can be large; an effect the other way counts as inactive or inconclusive.

By UniProt entry, the sequences of proteins in these tests, tags left out. Residues count along the entry.
UniProt P10828, whole entry: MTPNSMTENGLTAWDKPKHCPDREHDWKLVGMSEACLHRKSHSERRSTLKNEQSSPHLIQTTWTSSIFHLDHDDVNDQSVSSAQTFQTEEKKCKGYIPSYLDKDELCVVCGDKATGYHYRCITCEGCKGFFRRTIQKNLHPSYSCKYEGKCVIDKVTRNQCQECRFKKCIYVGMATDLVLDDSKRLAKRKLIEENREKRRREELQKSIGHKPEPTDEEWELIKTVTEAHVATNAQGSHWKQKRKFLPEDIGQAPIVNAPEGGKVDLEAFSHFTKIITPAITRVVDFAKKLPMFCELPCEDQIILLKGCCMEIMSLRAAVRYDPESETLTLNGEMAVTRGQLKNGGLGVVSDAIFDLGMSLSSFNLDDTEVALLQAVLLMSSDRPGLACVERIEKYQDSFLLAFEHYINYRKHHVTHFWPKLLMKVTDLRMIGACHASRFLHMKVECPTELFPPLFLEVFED
UniProt Q12809, 1-548 isoform 6: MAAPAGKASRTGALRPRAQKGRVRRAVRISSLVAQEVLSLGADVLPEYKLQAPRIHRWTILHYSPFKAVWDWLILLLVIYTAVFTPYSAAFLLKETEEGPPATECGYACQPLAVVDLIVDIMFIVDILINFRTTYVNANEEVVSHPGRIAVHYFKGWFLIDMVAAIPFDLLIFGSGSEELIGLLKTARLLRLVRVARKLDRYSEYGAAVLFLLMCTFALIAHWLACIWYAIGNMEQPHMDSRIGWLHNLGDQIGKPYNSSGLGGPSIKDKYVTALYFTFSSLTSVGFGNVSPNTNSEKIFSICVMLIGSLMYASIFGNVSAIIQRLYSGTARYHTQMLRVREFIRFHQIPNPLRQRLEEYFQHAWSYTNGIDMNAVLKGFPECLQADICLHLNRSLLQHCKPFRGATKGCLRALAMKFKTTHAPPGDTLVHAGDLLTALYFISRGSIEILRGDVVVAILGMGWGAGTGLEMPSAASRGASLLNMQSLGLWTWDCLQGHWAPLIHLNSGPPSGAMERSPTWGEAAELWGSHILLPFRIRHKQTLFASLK
UniProt P01375, whole entry: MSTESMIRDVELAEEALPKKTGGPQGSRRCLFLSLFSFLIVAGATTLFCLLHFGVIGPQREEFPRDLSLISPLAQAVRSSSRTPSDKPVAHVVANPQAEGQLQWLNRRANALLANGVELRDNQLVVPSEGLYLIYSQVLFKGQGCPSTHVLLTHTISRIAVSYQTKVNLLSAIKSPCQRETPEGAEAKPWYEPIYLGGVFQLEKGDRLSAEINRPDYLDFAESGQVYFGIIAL
UniProt Q07869, whole entry: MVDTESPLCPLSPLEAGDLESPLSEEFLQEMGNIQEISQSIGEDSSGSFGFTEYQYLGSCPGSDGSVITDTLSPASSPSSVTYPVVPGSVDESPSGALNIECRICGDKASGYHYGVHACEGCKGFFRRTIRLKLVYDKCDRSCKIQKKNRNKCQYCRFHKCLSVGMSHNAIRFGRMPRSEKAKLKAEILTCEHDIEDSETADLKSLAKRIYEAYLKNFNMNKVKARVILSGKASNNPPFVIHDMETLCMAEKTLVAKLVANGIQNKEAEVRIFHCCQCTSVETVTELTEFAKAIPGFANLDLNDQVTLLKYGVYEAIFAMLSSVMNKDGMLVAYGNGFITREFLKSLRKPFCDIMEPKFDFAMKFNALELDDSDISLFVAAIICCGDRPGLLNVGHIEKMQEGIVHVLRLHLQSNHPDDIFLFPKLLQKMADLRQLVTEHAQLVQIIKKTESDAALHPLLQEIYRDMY
UniProt P51449, whole entry: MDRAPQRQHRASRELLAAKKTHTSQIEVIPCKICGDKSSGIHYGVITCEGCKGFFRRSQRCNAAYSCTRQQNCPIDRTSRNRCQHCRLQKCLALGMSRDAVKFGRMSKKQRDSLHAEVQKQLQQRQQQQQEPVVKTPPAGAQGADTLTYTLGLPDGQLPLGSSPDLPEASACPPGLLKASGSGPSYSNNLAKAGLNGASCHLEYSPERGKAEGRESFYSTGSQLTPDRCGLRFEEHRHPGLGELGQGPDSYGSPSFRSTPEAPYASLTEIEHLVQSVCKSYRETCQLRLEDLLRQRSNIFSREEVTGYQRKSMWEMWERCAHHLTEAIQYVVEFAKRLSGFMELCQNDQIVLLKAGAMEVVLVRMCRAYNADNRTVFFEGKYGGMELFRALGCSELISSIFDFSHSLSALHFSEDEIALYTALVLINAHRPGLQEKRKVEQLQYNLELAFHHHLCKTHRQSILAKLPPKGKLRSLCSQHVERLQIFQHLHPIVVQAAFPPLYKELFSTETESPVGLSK

Tests used:
[1] = High-throughput drug toxicity screening in the BPDCN cell line Gen2.2 (AID 1224824; call rule not given here;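 also: cells exposed to compounds for 48 h before reading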); conditions: Gen2.2 BPDCN cells; at 45.8 µM (top of the series)
Outline: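 CellTiter-Glo luminescence after 48 h compound exposure of Gen2.2 cells; percent activity set with DMSO as 100% and bortezomib (9.2 uM final) as 0%. Cells seeded at 500 per well, RPMI + 10% FBS, 37 °C.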

[2] = High-throughput drug toxicity screening in the BPDCN cell line Cal-1 (AID 1224825; call rule not given here); conditions: Cal-1 BPDCN cell viability, qHTS; at 45.8 µM (top of the series)
Outline: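 Cal-1 cells, 500 per well in phenol-red-free RPMI with 10% FBS, exposed to compounds for 48 hours at 37C, 5% CO2. Viability read by CellTiter-Glo luminescence; percent activity normalized to DMSO (100%) and 9.2 uM bortezomib final (0%).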

[3] = qHTS Screen of the MIPE 4.0 Collection Against Ewings Sarcoma (RDES) (AID 1259252); conditions: RD-ES Ewing sarcoma viability, CellTiter-Glo, 48 h; at 45.8 µM (top of the series);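 also: 100% = DMSO-treated cells and 0% = medium-only wells without cells; nearly all actives have a fitted effect of over 35% in size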
Outline: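 Dose series incubated 48 h with cells in RPMI plus 5% FBS, glutamine and penicillin/streptomycin; cell viability then quantified via CellTiter-Glo.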

[4] = biological target: Thyroid hormone receptor beta (Homo sapiens) (UniProt P10828); assay: qHTS assay for small molecule antagonists of thyroid hormone receptor beta signaling (AID 588547; active = well fitted inhibition curve with a large enough effect in the signal ratio, with a control signal flat, not every such curve was filed as active; the % refers to the signal ratio); conditions: TR-UAS-bla HEK293, beta-lactamase ratio, antagonist mode, 18 h; stronger effect = lower value
Outline: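 TR-UAS-bla GripTite HEK293 cells in 2% charcoal/dextran FBS medium; compounds 0.59 nM to 92 uM with T3 at 0.4nM final, 18 h at 37 C. Beta-lactamase read by CCF4 fluorescence (460/530 nm); Hill fits gave IC50 and efficacy.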

[5] = biological target: Voltage-gated inwardly rectifying potassium channel KCNH2 (Homo sapiens) (UniProt Q12809); assay: qHTS Assay for Small Molecule Inhibitors of the Human hERG Channel Activity (AID 588834); conditions: U2OS BacMam hERG, FluxOR thallium flux fluorescence; at 92.2 µM (top of the series);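 also: U2OS cells transduced with hERG by BacMam; top concentration of the series differs between compounds; % is scaled to controls: 0 for no effect and ±100 for the full control effect; lower thallium flux fluorescence means stronger hERG block; nearly all actives have a fitted effect of over 50% in size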
[6] = qHTS assay for small molecule agonists of the antioxidant response element (ARE) signaling pathway (AID 651741; active = well fitted activation curve with a large enough effect in the signal ratio; the % refers to the signal ratio; also: % of control where 0% means no effect); conditions: HepG2 ARE-bla reporter, beta-lactamase FRET ratio, 16 h; at 96 µM (top of the series)
Outline: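 HepG2 ARE-bla cells plated at 2,000 cells/well and incubated 5 h at 37 C/5% CO2 received 23 nL compound in DMSO. After 16 h at 37 C, LiveBLAzer B/G FRET substrate was applied for 2 h at room temperature and fluorescence read.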

[7] = qHTS assay for small molecule activators of the p53 signaling pathway (AID 651743; active = well fitted activation curve with a large enough effect in the signal ratio, not every such curve was filed as active; the % refers to the signal ratio; also: % of control where 0% means no effect); conditions: HCT-116 p53RE-bla, beta-lactamase FRET ratio, 16 h; stronger effect = higher value
Outline: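 HCT-116 p53RE-bla, 4,000 cells/well; 5 h settle; cpd/DMSO 16 h, 37 C; LiveBLAzer B/G 2 h RT; fluorescence intensity.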

[8] = qHTS assay for small molecule activators of the nuclear factor-kappa B (NF-kB) signaling pathway (AID 651749; active = well fitted activation curve with a large enough effect in the signal ratio; the % refers to the signal ratio; also: % of control where 0% means no effect); conditions: NF-kB-bla ME-180 cells, beta-lactamase FRET ratio, 16 h; stronger effect = higher value
Outline: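 Incubation lasted 16 hr at 37C in 5% CO2 after 23 nL compound addition to ME-180 NF-kB-bla cells. Activation appears as beta-lactamase-mediated FRET loss.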

[9] = qHTS assay for small molecule disruptors of the mitochondrial membrane potential - 1 hr assay (AID 651754; calls by dose curve; also: % is scaled to controls: 0 for no effect and ±100 for the full control effect; nearly all actives have a fitted effect of over 35% in size); conditions: HepG2 mitochondrial membrane potential, JC-1 ratio 590/535, 1 h; at 92.2 µM (top of the series)
Outline: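 Steps: seed HepG2 cells and let attach overnight; pin-transfer compound or vehicle; incubate 1 hr at 37C; add Mito-MPS dye for 30 min; read two-channel fluorescence for monomer and aggregate forms.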

[10] = qHTS assay for small molecule disruptors of the mitochondrial membrane potential - 5 hr assay (AID 651755; calls by dose curve; also: % is scaled to controls: 0 for no effect and ±100 for the full control effect; nearly all actives have a fitted effect of over 40% in size); conditions: JC-1-type ratio dye; at 92.2 µM (top of the series)
[11] = biological target: Tumor necrosis factor (Homo sapiens) (UniProt P01375); assay: qHTS assay to identify small molecules that stimulate Tumor Necrosis Factor-alpha (TNF-alpha) secretion (AID 651757; active = well fitted curve in the direction sought with a large enough effect in the signal ratio; the % refers to the signal ratio; also: 0% is about no effect); conditions: Human cells, HTRF 665/615 ratio; at 92.2 µM (top of the series)
Outline: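 Secreted TNF-alpha from compound-treated THP-1 cells (17 hrs, 37 C) was quantified with a homogeneous time-resolved fluorescence antibody assay.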

[12] = qHTS assay for environmental chemicals that activate the Aryl hydrocarbon Receptor (AhR) signaling pathway (AID 651777); conditions: 1A2-DRE human hepatoma cells, luciferase, 24 h; stronger effect = higher value; also: % of control where 0% means no effect; nearly all actives have a fitted effect of over 15% in size
Outline: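 AhR activation is scored as a rise in luciferase from a stable DRE–CYP1A2 promoter construct in human hepatoma cells. Treatment lasts 24 hr at 37 C; detection uses One-Glo after 30 min at room temperature.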

[13] = biological target: Peroxisome proliferator-activated receptor alpha (Homo sapiens) (UniProt Q07869); assay: qHTS assay for small molecule agonists of the peroxisome proliferator-activated receptor alpha (PPARalpha) signaling pathway (AID 651778); conditions: PathHunter PPARalpha complementation, chemiluminescence, 6 h; stronger effect = higher value; also: % of control where 0% means no effect
Outline: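 Enzyme-fragment complementation assay in which ligand-bound PPARalpha translocates and forms an active enzyme that generates chemiluminescence. Cells were plated overnight, exposed to compound for 6 hr at 37 C, and then given detection reagent for 60 min at room temperature.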

[14] = biological target: Nuclear receptor ROR-gamma (Homo sapiens) (UniProt P51449); assay: qHTS assay for small molecule antagonists of the retinoid-related orphan receptor gamma (ROR-gamma) signaling pathway (AID 651802); conditions: ROR-gamma antagonist cell reporter assay; at 92.2 µM (top of the series);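 also: CHO cells with doxycycline-induced ROR-gamma expression; luciferase reporter luminescence driven by ROR response element; % is scaled to controls: 0 for no effect and ±100 for the full control effect; nearly all actives have a fitted effect of over 60% in size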
[15] = qHTS assay for small molecule agonists of the antioxidant response element (ARE) signaling pathway measured by Nrf2-dependant transcriptional activity (AID 720636; active = well fitted curve in the direction sought with a large enough effect in the repeat runs; an effect the other way counts as inactive or inconclusive;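 also: HepG2 cells with an ARE-driven luciferase reporter; % of control where 0% means no effect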); conditions: ARE-luc HepG2, Nrf2 luciferase reporter, 16 h; at 92.4 µM (top of the series)
Outline: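 First, ARE-luc HepG2 cells attached for 6 hr at 37 C in 1% dialyzed FBS medium. Next, compound or DMSO was added and incubated 16 hr. Finally, ONE-Glo reagent was added and luminescence measured after 30 min.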

[16] = qHTS assay for small molecule antagonists of the retinoid-related orphan receptor gamma (ROR-gamma) signaling pathway - cell viability counter screen (AID 720652; active = well fitted curve in the direction sought with a large enough effect in the repeat runs; an effect the other way counts as inactive or inconclusive;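 also: CHO reporter cells with doxycycline-induced ROR-gamma expression; compound exposure lasted 16 hr before ATP read; % is scaled to controls: 0 for no effect and ±100 for the full control effect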); conditions: RORgamma reporter cell line viability counter screen; at 92.2 µM (top of the series)
[17] = qHTS assay for small molecule agonists of the antioxidant response element (ARE) signaling pathway measured by Nrf2-dependant transcriptional activity - cell viability counter screen (AID 720653; active = well fitted curve in the direction sought with a large enough effect in the repeat runs; an effect the other way counts as inactive or inconclusive; also: % is scaled to controls: 0 for no effect and ±100 for the full control effect); conditions: ARE-bla HepG2 viability, CellTiter-Glo ATP luminescence, 16 h; stronger effect = lower value
Outline: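 ARE-bla HepG2 cells treated with compounds for 16 h at 37C; this counter screen measures viability as intracellular ATP by CellTiter-Glo luminescence after 30 min at room temperature.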

[18] = qHTS assay for cell viability of HEK293 cells (AID 743288); conditions: ATP luminescence (CellTiter-Glo), 18 h, stronger effect = lower value; also: % is scaled to controls: 0 for no effect and ±100 for the full control effect; nearly all actives have a fitted effect of over 50% in size
Outline: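 Environmental chemicals tested in qHTS format against parental HEK293 cells; 18 h treatment, 37 C; read-out ATP luminescence (CellTiter-Glo), 30 min RT development.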

[19] = qHTS assay for cell viability of the p53RE-bla HCT-116 cell line (AID 743292); conditions: p53RE-bla HCT-116 viability, ATP luminescence, 16 h; at 95 µM (top of the series); also: % is scaled to controls: 0 for no effect and ±100 for the full control effect; nearly all actives have a fitted effect of over 55% in size
Outline: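 Quantitative high-throughput format: compounds in DMSO were pinned onto p53RE-bla HCT-116 cells (4,000/well) and incubated 16 h at 37 C. Total intracellular ATP, read by CellTiter-Glo luminescence, reflects viable cell number.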

[20] = qHTS assay to identify small molecules that stimulate interleukin-8 (IL-8) secretion (AID 651758; active = well fitted activation curve with a large enough effect in the signal ratio; the % refers to the signal ratio; also: 0% is about no effect); conditions: HTRF ratio (665/615); at 92.2 µM (top of the series)
Outline: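 THP-1 cells (2000/well) exposed to compound 16 h at 37 C; secreted IL-8 then detected by HTRF with cryptate- and XL665-labelled anti-IL-8 antibody pair after 1-3 h at room temperature.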

Question: For `CCOC(=O)C(=O)CBr`, which cell viability, % of control (lower = more cytotoxic) [1] is on record?
Answer: Its cell viability, % of control (lower = more cytotoxic) is 116%.

Question: And the viability (% of control) [2]?
Answer: The viability (% of control) was 87.3%.

Question: What about the viability (percent of control) [3] of the same compound?
Answer: Its viability (percent of control) is inactive: 120%.

Question: For `CCOP(=O)(Cl)Cl`, which inhibition [4] is on record?
Answer: The inhibition was inactive: -5.42% and inactive: 5.84%.

Question: And the activity change, negative = inhibition [5]?
Answer: Its activity change, negative = inhibition is inactive: 4.27%.

Question: And the activation [6]?
Answer: The activation was inactive: 7.15% and inactive: 5.84%.

Question: And the activation [7]?
Answer: Its activation is inactive: 1.98% and inactive: 1.27%.

Question: And the activation [8]?
Answer: The activation was inactive: 1.05% and inactive: -0.428%.

Question: And the ratio change, negative = depolarisation [9]?
Answer: Its ratio change, negative = depolarisation is inactive: 1.07%.

Question: What about the ratio change, negative = disruption [10] of the same compound?
Answer: Its ratio change, negative = disruption is inactive: 4.39%.

Question: And the activation (TNF-alpha secretion) [11]?
Answer: Its activation (TNF-alpha secretion) is inactive: -0.269%.

Question: And the activation [12]?
Answer: The activation was inactive: 0.025% and inactive: 0.0379%.

Question: And the max response [13]?
Answer: The max response was inactive: -3.97% and inactive: -0.121%.

Question: What about the activity change, negative = inhibition [14] of the same compound?
Answer: Its activity change, negative = inhibition is inactive: 15.3%.

Question: And the activation [15]?
Answer: Its activation is inactive: -0.0421% and inactive: 0.0101%.

Question: What about the activity change, negative = cytotoxicity [16] of the same compound?
Answer: The activity change, negative = cytotoxicity was inactive: 2.8%.

Question: And the max response [17]?
Answer: The max response was inactive: -7.33% and inactive: 7.4%.

Question: And the max response [18]?
Answer: Its max response is inactive: 1.06% and inactive: -3.46%.

Question: And the activity change, negative = cytotoxicity [19]?
Answer: Its activity change, negative = cytotoxicity is inactive: 7.13% and inactive: 6.26%.

Question: For `ClCCOP(OCCCl)OCCCl`, which inhibition [4] is on record?
Answer: Its inhibition is inactive: -2.44%.

Question: What about the activity change, negative = inhibition [5] of the same compound?
Answer: Its activity change, negative = inhibition is inactive: 8.91%.

Question: What about the activation [7] of the same compound?
Answer: The activation was inactive: -1.07%.

Question: What about the activation [8] of the same compound?
Answer: The activation was inactive: -0.81%.

Question: What about the ratio change, negative = depolarisation [9] of the same compound?
Answer: The ratio change, negative = depolarisation was inactive: 3.2%.

Question: What about the ratio change, negative = disruption [10] of the same compound?
Answer: The ratio change, negative = disruption was inactive: 1.39%.

Question: And the activation (TNF-alpha secretion) [11]?
Answer: Its activation (TNF-alpha secretion) is inactive: -0.0133%.

Question: What about the activation [20] of the same compound?
Answer: Its activation is inactive: -10.9%.

Question: What about the activation [12] of the same compound?
Answer: Its activation is inactive: -0.719%.

Question: What about the max response [13] of the same compound?
Answer: The max response was inactive: -1.52%.

Question: And the activity change, negative = inhibition [14]?
Answer: The activity change, negative = inhibition was inactive: -20%.

Question: What about the activation [15] of the same compound?
Answer: Its activation is inactive: -0.0969%.

Question: What about the activity change, negative = cytotoxicity [16] of the same compound?
Answer: The activity change, negative = cytotoxicity was inactive: 15.6%.

Question: And the max response [17]?
Answer: Its max response is inactive: 2.92%.

Question: And the max response [18]?
Answer: The max response was inactive: 1.02%.

Question: What about the activity change, negative = cytotoxicity [19] of the same compound?
Answer: The activity change, negative = cytotoxicity was inactive: -4.13%.

Question: With `O=[N+]([O-])c1ccccc1[N+](=O)[O-]` as the compound, how does the inhibition [4] read?
Answer: The inhibition was inactive: 7.75%.

Question: And the activation [7]?
Answer: The activation was inactive: -5.19%.

Question: What about the activation [8] of the same compound?
Answer: The activation was inactive: -5.35%.

Question: What about the activation [12] of the same compound?
Answer: Its activation is inactive: 4.19%.

Question: What about the max response [13] of the same compound?
Answer: The max response was inactive: 0.978%.

Question: What about the max response [17] of the same compound?
Answer: The max response was inactive: 5.72%.

Question: What about the max response [18] of the same compound?
Answer: The max response was inactive: -5.55%.

Question: What about the activity change, negative = cytotoxicity [19] of the same compound?
Answer: Its activity change, negative = cytotoxicity is inactive: -4.04%.
